The values below come from article PMC5049494, “Nitrotriazole-based acetamides and propanamides with broad spectrum antitrypanosomal activity” (European Journal of Medicinal Chemistry, 2016).

Common to all, as to type: cell-based
In assay [1] the test system is L. donovani axenic, strain MHOM-ET-67/L82 amastigotes. The experiment in a line: In vitro activity against L. donovani. As to conditions: IC50 in L6 cells/IC50 in L. donovani.
Assay [2] concerns T.b. rhodesiense, strain STIB 900 trypomastigotes. The experiment in a line: In vitro activity against T. b. rhodesiense. On the procedure:
Compounds in Table 1 were screened for anti-parasitic activity against three trypanosomatids: T. cruzi, T. b. rhodesiense and Leishmania donovani and compared with previously made analogs shown in orange and designated with a. The concentration of compound that inhibits parasite growth by 50% (IC50) was calculated from dose response curves for each parasite (Table 1). In addition, compounds were tested for toxicity in L6 rat skeletal myoblasts, the host cells for T. cruzi amastigotes, in order to calculate a selectivity index for each parasite [SI = IC50L6/IC50parasite] (Table 1). The TDR (Special Programme for Research and Training in Tropical Diseases, World Health Organization) criteria were adopted to interpret antiparasitic activity and selectivity.
In vitro activity against T. cruzi, T. b. rhodesiense, L. donovani and cytotoxicity assessment using L6 cells (rat skeletal myoblasts) was determined using a 96-well plate format as previously described. Data were analyzed with the graphic program Softmax Pro (Molecular Devices, Sunnyvale, CA, USA), which calculated IC50 values by linear regression from the sigmoidal dose inhibition curves.

The subject of assay [3] is T. cruzi, strain Tulahuen C4 amastigotes. The experiment in a line: In vitro activity against T. cruzi. As to conditions: IC50 in L6 cells/IC50 in T. cruzi.
The test system of assay [4] is bloodstream form T.b. brucei recombinant parasites expressing wild type (-tet) or elevated (+tet) levels of TbNTR. The note with it: ratio of IC50 values -tet/+tet.

Take `O=C(CCn1cnc([N+](=O)[O-])n1)Nc1ccc(Oc2ccc(F)cc2)cc1` [Compound 7, N-(4-(4-fluorophenoxy)phenyl)-3-(3-nitro-1H-1,2,4-triazol-1-yl)propanamide]: the “SI (L.d.)” value in assay [1] came out at 20. Also, the “SI (T.b.r.)” value in assay [2] (IC50 in L6 cells/IC50 in T.b. rhodesiense) is reported as 140. Moreover, the “fold more potent against T. b. rhodesiense than the corresponding acetamide” value in assay [2] (propanamide vs acetamide analog) is given as 12 fold. Also, the “SI (T. c.)” value in assay [3] was 579.

On to `O=C(CCn1cnc([N+](=O)[O-])n1)Nc1ccc(Oc2ccccc2)cc1` [Compound 8, 3-(3-Nitro-1H-1,2,4-triazol-1-yl)-N-(4-phenoxyphenyl)propanamide], for which, in assay [4], the “Ratio –tet/+tet” value stood at 3.6.

As for `N#Cc1ccc(-c2ccc(NC(=O)CCn3cnc([N+](=O)[O-])n3)cc2)cc1` [Compound 9, N-(4′-cyano-[1,1′-biphenyl]-4-yl)-3-(3-nitro-1H-1,2,4-triazol-1-yl)propanamide], the “Ratio –tet/+tet” value in assay [4] worked out at 4.7.
